By UniProt entry, the sequences of proteins in these tests, tags left out. Where a name states a change or a piece, a line headed by the entry shows the natural chain unless it says otherwise.
UniProt P22894: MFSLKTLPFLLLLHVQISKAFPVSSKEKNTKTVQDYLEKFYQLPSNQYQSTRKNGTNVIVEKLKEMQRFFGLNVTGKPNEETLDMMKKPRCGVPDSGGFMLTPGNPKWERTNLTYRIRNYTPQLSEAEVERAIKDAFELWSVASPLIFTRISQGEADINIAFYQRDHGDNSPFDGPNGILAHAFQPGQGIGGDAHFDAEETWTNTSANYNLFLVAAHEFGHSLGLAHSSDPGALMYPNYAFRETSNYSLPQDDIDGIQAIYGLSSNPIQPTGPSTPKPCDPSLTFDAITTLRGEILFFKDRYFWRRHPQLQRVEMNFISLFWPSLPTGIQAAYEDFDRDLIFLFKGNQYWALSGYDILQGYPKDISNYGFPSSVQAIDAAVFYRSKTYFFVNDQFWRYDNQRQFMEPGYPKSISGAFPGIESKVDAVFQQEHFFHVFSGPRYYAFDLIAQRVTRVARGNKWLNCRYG

This assay deals with Neutrophil collagenase (Homo sapiens, UniProt P22894). Briefly: Inhibition of human neutrophil collagenase [Matrix Metalloprotease-8, MMP-8].
As a reminder, the IC50 is the point on the concentration scale where inhibition reaches its midpoint. Low values mean greater potency in that assay, high ones weaker potency in that assay. In the case of `O=C(NO)[C@H]1Cc2ccccc2CN1S(=O)(=O)CCc1ccccc1`, the half-maximal inhibitory concentration (IC50) worked out at 20 nM.
In turn, `O=C(NO)[C@H]1Cc2ccccc2CN1S(=O)(=O)c1ccccc1` returned an IC50 of 20 nM.
Compound `CCOC(=O)Nc1cccc(S(=O)(=O)N2Cc3ccccc3C[C@@H]2C(=O)NO)c1` returned an IC50 of 300 nM.
